Each structure is given as a SMILES string.

Amino acid sequences for entries named in this document (tags omitted). A change or cut given only in a name is not applied to a line headed by its entry.
UniProt P52704: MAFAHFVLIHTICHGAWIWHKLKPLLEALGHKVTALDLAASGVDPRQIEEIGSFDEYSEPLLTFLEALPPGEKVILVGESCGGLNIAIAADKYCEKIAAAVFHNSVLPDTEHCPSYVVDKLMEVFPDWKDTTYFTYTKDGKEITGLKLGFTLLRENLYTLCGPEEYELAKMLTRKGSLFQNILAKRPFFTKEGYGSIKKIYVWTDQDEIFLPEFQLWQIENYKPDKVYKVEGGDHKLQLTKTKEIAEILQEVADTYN
UniProt A0A0H5BR52, entry or part of it: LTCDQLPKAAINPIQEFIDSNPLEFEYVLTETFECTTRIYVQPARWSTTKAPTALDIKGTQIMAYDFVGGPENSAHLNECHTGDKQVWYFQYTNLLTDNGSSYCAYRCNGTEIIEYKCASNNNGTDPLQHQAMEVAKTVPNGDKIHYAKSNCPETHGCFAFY

The source of these data is patent US20170166879A1, “NOVEL (R)-HYDROXYNITRILE LYASE” (PUBLIC UNIVERSITY CORPORATION TOYAMA PREFECTURAL UNIVERSITY, priority 2014, published 2017).

Test [1] concerns the target S-HNL derived from Para rubber tree (Hevea brasiliensis) (Hevea brasiliensis, UniProt P52704). To be noted: cited from earlier work.
The next test concerns the target R-ChHNL (Chamberlinius hualienensis, UniProt A0A0H5BR52). As to the kind of experiment: Search of inhibitor of R-ChHNL activity (remaining activity). Type of test: biochemical.

Regarding `N.N#CS` [ammonium thiocyanate], the “inhibition of S-HNL” value in test [1] is given as “strongly inhibits”. Also, the “inhibition of the R-ChHNL” value against R-ChHNL is reported as “does not inhibit”. The Remaining activity on R-ChHNL (pH 7) is 43%.
